In US10266542B2 (dated 2019) one finds IC50 data, which are given here for two compounds.

The chains behind the UniProt entries cited, without tags or fusion partners. Where a name states a change or a piece, a line headed by the entry shows the natural chain unless it says otherwise.
UniProt Q15910: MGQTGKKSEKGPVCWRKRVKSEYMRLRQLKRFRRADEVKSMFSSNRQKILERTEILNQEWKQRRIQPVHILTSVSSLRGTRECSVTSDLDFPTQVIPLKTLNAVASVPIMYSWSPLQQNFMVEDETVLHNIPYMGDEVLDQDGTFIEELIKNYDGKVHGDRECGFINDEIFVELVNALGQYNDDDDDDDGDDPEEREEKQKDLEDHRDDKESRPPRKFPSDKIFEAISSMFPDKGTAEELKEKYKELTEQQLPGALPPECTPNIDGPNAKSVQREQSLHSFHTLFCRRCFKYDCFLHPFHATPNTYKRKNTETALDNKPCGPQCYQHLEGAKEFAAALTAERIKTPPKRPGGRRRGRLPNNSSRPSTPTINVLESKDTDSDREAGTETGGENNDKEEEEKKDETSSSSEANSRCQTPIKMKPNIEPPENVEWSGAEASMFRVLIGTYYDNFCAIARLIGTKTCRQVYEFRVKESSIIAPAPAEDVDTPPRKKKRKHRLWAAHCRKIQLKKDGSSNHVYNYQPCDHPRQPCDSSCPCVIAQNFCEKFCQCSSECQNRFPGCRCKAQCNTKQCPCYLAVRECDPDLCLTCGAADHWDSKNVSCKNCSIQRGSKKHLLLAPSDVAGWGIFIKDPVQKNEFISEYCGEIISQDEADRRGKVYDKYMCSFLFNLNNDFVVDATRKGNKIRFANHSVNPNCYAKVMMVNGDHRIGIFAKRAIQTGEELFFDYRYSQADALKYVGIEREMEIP

The test concerns the target purified EZH2 enzyme (Homo sapiens (Human), UniProt Q15910). The test is described as follows: biochemical.

The term IC50 denotes the concentration needed to halve the response being measured. Read a low IC50 as higher potency. `COC(c1cc(Cl)c2c(c1Cl)C(=O)N(Cc1c(=O)[nH]c(C)c3ccoc13)CC2)C1CN(C)C1` (centres unmarked) [Example 10, 7-((5,8-dichloro-7-(methoxy(1-methylazetidin-3-yl)methyl)-1-oxo-3,4-dihydroisoquinolin-2(1H)-yl)methyl)-4-methylfuro[3,2-c]pyridin-6(5H)-one] came in with an IC50 of 12 nM.

In the case of `Cc1nnn(C)c1-c1cc(Cl)c2c(c1Cl)C(=O)N(Cc1c(=O)[nH]c(C)c3ccoc13)CC2` [Example 14, 7-((5,8-dichloro-7-(1,4-dimethyl-1H-1,2,3-triazol-5-yl)-1-oxo-3,4-dihydroisoquinolin-2(1H)-yl)methyl)-4-methylfuro[3,2-c]pyridin-6(5H)-one], the IC50 stood at 10 nM.
